Data taken from patent US20240115662A1, “METHODS OF TREATING HYPOGONADOTROPIC HYPOGONADISM AND COGNITION IMPAIRMENT FOLLOWING A TRAUMATIC BRAIN INJURY” (WISCONSIN ALUMNI RESEARCH FOUNDATION, priority 2021, published 2024).

Columns and labels:
[1] = system: male Sprague Dawley rats with craniectomy or controlled cortical impact (CCI) injury; test: Plasma steroid concentrations after craniectomy (Sham) or CCI injury, hCG with or without RU-486; type: in vivo, rat
Method: Male Sprague Dawley (SD) rats (n=58, 5-6-months old) were acquired from Harlan Laboratories Inc. (Madison, WI) and acclimated to the environment over 2 days. Rats were then weighed and handled for no less than 5 min each for 5 consecutive days and daily thereafter while being housed, fed and maintained on a 12-hour reverse light/dark cycle. The Institutional Animal Care and Use Committee (Animal Component of Research Protocol) at the William S. Middleton Veterans Administration Hospital approved the procedures used in this study and the research was conducted in an AAALAC-approved facility. Experimenters were blinded as to the identity of the animals throughout injections, blood collections, and body weight and hormone data analyses.
All surgical procedures were carried out under isoflurane gas anesthesia (5% for induction; 1.5-3.0% for maintenance, craniectomy ˜15-30 min duration; craniectomy+CCI injury ˜25-45 min duration). An anesthesia chamber was used for induction and a nose cone was used for maintenance.
Anesthetized rats were mounted in a Kopf stereotaxic device (Model 900; Tujunga, CA), where the animal's head was held in place by non-traumatic ear bars and a bite bar. Anesthesia was maintained by nose cone while the head was shaved and sterilized with 70% ethanol and Betadine™ (Purdue Products L.P., Stamford, CT) antiseptic solution. Throughout surgery anesthesia levels were monitored closely and were frequently adjusted as need, based on heart rate, respiration rate and oxygen saturation. A homeothermic blanket control unit (Harvard Apparatus, Holliston, MA) was used to monitor body temperature and to prevent hypothermia throughout surgery.
Under aseptic conditions, the cranium and its bony landmarks including bregma (β) and lambda (λ) were exposed by making a midline incision along the scalp into the skin and fascia covering the skull. A 6 mm diameter craniectomy was centered on the midline at 2.5 mm anterior to β. The cortical impact was made at 2.5 mm anterior to β over the midline of the medial frontal cortex with an Impact One™ Stereotaxic CCI instrument (Leica, Buffalo Grove, IL), using a 5 mm impactor (bit size), traveling at 2.25 m/s (velocity), extending 3 mm below the cortical surface (impact depth) for 100 ms (dwell time). Sham-injured groups received the same surgical procedures up to and including craniectomy but no CCI injury. After surgery, the rats were placed on a heating pad, monitored closely and upon awakening were tested 30 min later for righting reflex to assess any immediate effects of craniectomy or CCI injury on righting ability, and then returned to their home cages.
Experiment 1: Rats were assigned to the following groups: Sham+saline (n=5), Sham+hCG (n=5), CCI+saline (n=8), CCI+hCG (n=8). Baseline blood draws were collected from all animals. Beginning 1-hour after craniectomy or CCI, Pregnyl® (hCG, 400 IU/kg; Merck & Co., Inc., Whitehouse Station, NJ) or saline (0.9% NaCl in deionized H2O; equivalent volume to that injected for hCG) was injected intramuscularly every other day for 29 days. Pregnyl® is a highly purified pyrogen-free preparation obtained from the urine of pregnant females. Each vial contains 10,000 USP units of sterile dried powder with 5 mg monobasic sodium phosphate and 4.4 mg dibasic sodium phosphate that is diluted in solvent containing water, 0.56% sodium chloride and 0.9% benzyl alcohol (www.drugs.com/pro/pregnyl.html).
Experiment 2: Rats were assigned to the following groups: Sham+saline+RU-486 (n=5), Sham+hCG+RU-486 (n=5), CCI+saline+RU-486 (n=5), or CCI+hCG+RU-486 (n=5). RU-486 (Mifepristone, 100 mg/mL solution, CAS Number 84371-65-3; 40 mg/kg in 100% ethanol; Sigma-Aldrich Corp., St. Louis, MO,) was injected intraperitoneallyl 5-20 min before every hCG or saline control injection.
Rats were anesthetized (between 9:00 a.m.-12:00 noon) and their tails placed in a 200 mL beaker filled with warm water (≤44° C.) for 5 min. […]

[2] = system: adult male rats with CCI injury; test: Morris water maze spatial learning and memory after CCI; type: in vivo, rat
Source text: Therefore, hCG reduced the detrimental effects of CCI on latency to reach the platform. […] Re-Acquisition Phase:_Sham/NSCon groups quickly learned the new location of the hidden platform, and while this learning was severely compromised in the CCI vehicle group, hCG enabled better learning of the new location of the hidden platform in CCI animals (n=9-12/group; p<0.05; a, b=differences between groups during acquisition phase; c, d=differences between groups during re-acquisition phase; e=differences within groups between the acquisition (PID10) and re-acquisition phases (PID20)).
To test the effects of hCG on cognitive and motor recovery, 69 adult male rats (5-month of age) with CCI injury (group size, n=31), sham surgery (n=24) or non-surgical control (NSCon; n=14) were immediately administered saline (n=32) or hCG (200 mIU/kg/2 days n=37) over 28 d. On PID 2, 6, 9, 13 and 23, all rats were tested for vestibulomotor performance (Rotarod) and on PID 6-10 and 20-22 the same rats were tested for learning and memory (Morris water maze (MWM)), respectively. Probe Test 1 and 2 (i.e., swimming in tank for 60 s without MWM platform) were conducted on PID 12 and 24. At the end of behavioral testing, rat brains were collected, digitally imaged and analyzed for gross lesion size (% of whole brain surface area). Note that there was considerable overlap between NSCon and Sham groups (see small standard deviations for the data) and are therefore presented as one group.
To test spatial learning and memory, rats were trained in Morris water maze performance and the latency to reach a hidden platform was recorded over 5 days (Acquisition Phase), and later, spatial memory was tested by moving the platform to a novel location (Re-acquisition Phase). We found no difference between groups in latency to reach the platform on day 1 (PID6) of the acquisition Phase (p>0.05, FIG. 9). By day 5 (PID10) of the acquisition Phase, Sham/NSCon animals treated with vehicle or hCG were fastest to find the hidden MWM platform (8.6±1.2 s to 10.4±2.1 s). […] Ten days after the acquisition phase (PID20) the platform was moved from the NE to the SE quadrant (novel platform placement; NPP) and rats were tested for 3 days (re-acquisition phase).
At the end of each acquisition phase, the platform was removed and 48 h later the animals were tested in the MWM for quadrant preferences over 60 s to determine if they remembered the location of the hidden platform (Probe test 1; NE quadrant). […] Similar to Probe test 1, 48 h after completing the re-acquisition phase the platform was removed and the animals were tested for quadrant preferences (Probe test 2). […] The probe tests indicate that immediate and chronic hCG promotes medium-term memory more so than long-term memory.

hCG: heterodimeric glycoprotein hormone (α SEQ ID NO:1, β SEQ ID NO:2); given to the rats as Pregnyl
effect on circulating corticosterone ([1]; CCI animals, PID 1 and 11): did increase circulating corticosterone | plasma P4 concentration ([1]; CCI injured animals without RU-486, PID 1): 24.2 ± 5.8 ng/mL | plasma T concentration ([1]; CCI injured animals without RU-486, PID 11): 12.9 ± 4.3 ng/mL | plasma T concentration ([1]; CCI injured animals without RU-486, PID 19): 9.7 ± 1.4 ng/mL | plasma androstenedione concentration ([1]; CCI+hCG group, PID 11, hCG 400 IU/kg every other day): 4.5 ± 2.1 ng/mL | effect on corticosterone concentrations ([1]; Sham animals, any time point): had no effect on increasing corticosterone concentrations | effect on circulating concentrations of T and P4 ([1]; Sham surgery or CCI group, by PSD/PID 1): significantly increased circulating concentrations of T and P4 back to baseline concentrations | duration of elevation in T ([1]; Sham surgery or CCI group, hCG every other day): elevations in T were maintained through PSD/PID 29 | circulating 11-DOC ([1]; Sham+hCG, PID 1, no RU-486): 123.1 ± 24.6 ng/mL | plasma P4 concentration ([1]; Sham+hCG, PID 29, no RU-486): 31.8 ± 14.2 ng/mL | time spent in NE quadrant, Probe test 1 ([2]; CCI animals, 60 s test, chance 15 s): 24.5 ± 1.2 s | MWM latency to find hidden platform ([2]; CCI animals, day 5 (PID10) of acquisition phase): 17.3 ± 3.6 s | MWM latency to find hidden platform ([2]; CCI animals, re-acquisition phase, PID22): 20.0 ± 2.8 s | accumulated time spent in both platform associated quadrants, Probe test 2 ([2]; CCI animals, chance ~30 s): 36.6 ± 2.5 s | time spent in SE quadrant, Probe test 2 ([2]; CCI animals, platform placement 2 days prior): significantly increased time spent in the newer SE quadrant | time spent in NE quadrant, Probe test 2 ([2]; CCI animals, platform placement 12 days prior): not in the older NE quadrant | time spent in SE quadrant, Probe test 2 ([2]; Sham/NSCon animals): small, but significant decrease in time spent in the SE quadrant | MWM latency to find hidden platform ([2]; Sham/NSCon animals, end of acquisition phase): 10.4 ± 2.1 s | MWM latency to find hidden platform ([2]; Sham/NSCon animals, re-acquisition phase after NPP): 10.9 ± 1.3 s
